Assay results from patent publication US20250163052A1, “cGAS INHIBITORS AND USES THEREOF” (Cornell University, priority 2022, published 2025).

Assay: Metabolic stability in human liver microsomes

C[C@]12CC[C@H]3[C@@H](CCC4=CC(=O)CC[C@@]43C)[C@@H]1CC[C@@H]2O [Testosterone, reference compound]
T½: 12.7 min
